Earlier results, collected in US8598325B2, “Solid-phase microextraction coatings and methods for their preparation” (priority 2002, dated 2013).

Settings: at 25° C.

Question: Which “Vapour Pressure” value does the source give for diniconazole here?
Answer: 2.96 mPa
